# Antibody variant affinities, Ab-14 light chain, assay B

Target: peptide PDVDLGDISGINAS, taken from heptad repeat 2 (HR2) of SARS-CoV-2 spike.

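Phage display of a naive human antibody library on the peptide gave the parent. The variants were designed computationally from a first round of random CDR variants and then made and measured. Their group label is 14L_GP_Gen (GP: Gaussian process model; Gen: genetic algorithm; a sequence that several methods proposed may carry one label only). AlphaSeq pools MATa yeast showing the antibodies with MATalpha yeast showing the peptide. The frequency of each diploid, read from paired DNA barcodes, reflects how well the two displayed proteins bind. The ratio of observed to expected reads was calibrated, replicate by replicate, on BCL2-family standards whose Kd was known from biolayer interferometry. Mating was done six times.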

Ab-14 is the parent antibody, in scFv form: VH, then the linker GGGGSGGGGSGGGGS, then VL. The heavy chain is unchanged in all variants.
VH: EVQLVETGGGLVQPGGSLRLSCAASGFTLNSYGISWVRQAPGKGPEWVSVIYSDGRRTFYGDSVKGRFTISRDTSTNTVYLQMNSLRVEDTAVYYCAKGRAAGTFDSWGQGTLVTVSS
VL: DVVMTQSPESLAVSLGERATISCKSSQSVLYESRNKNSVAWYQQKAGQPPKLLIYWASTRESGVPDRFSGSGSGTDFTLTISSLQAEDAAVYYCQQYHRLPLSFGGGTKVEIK

Changes read parent residue, position, new residue, counted from the first residue of the VL shown.
The read-out is the apparent dissociation constant on a log10 scale (nM): the lower, the stronger.
Replicates are averaged; those with no signal do not enter the mean.
The authors' rule: three or more of the six replicates give a measured affinity, fewer mean a poor binder.

changes | log10 Kd (nM) by replicate | mean log10 Kd (nM) | control signals
S25L N35M K36W W56N | 0.10 -0.03 -0.01 -0.17 -0.10 -0.11 | -0.05 | 1 of 18 (2.67)
S25F V29F W56N | 0.06 0.10 0.09 0.00 -0.01 0.04 | 0.05 | 1 of 18 (2.15)
S25L S33A W56N E61M | 0.17 0.24 0.15 0.20 0.08 0.28 | 0.19 | 1 of 18 (2.95)
S25L S38N W56H E61M | 0.15 -0.07 0.04 -0.20 -0.18 -0.14 | -0.07 | 1 of 18 (2.53)
S25F S26E W56N T59Q E61M | -0.08 -0.14 -0.09 -0.17 -0.23 0.10 | -0.10 | 3 of 18 (3.10)
S25F S26E V29T W56N | -0.03 0.13 0.01 0.06 -0.01 0.07 | 0.04 | 0 of 18
S25V V29W W56H | 0.59 0.27 0.50 0.32 0.03 0.74 | 0.41 | 2 of 18 (3.12)
K24Y S25L W56N T59Q | 0.00 -0.06 -0.06 -0.32 -0.16 0.08 | -0.09 | 1 of 18 (2.50)
K24H S25L S33E W56N T59Q | -0.40 -0.52 -0.53 -0.89 -0.62 -0.33 | -0.55 | 1 of 18 (1.88)
S25L L30M W56E | 0.39 0.45 0.38 0.18 0.43 0.77 | 0.44 | 1 of 18 (3.04)
S25L V29W W56H T59Q Q96D | 0.17 0.00 0.25 0.04 0.01 0.22 | 0.12 | 2 of 18 (3.36)
S25L S26Q V29E W56N T59E | 0.36 0.16 0.15 -0.05 0.33 0.05 | 0.16 | 1 of 18 (2.52)
S25L S26P V29D W56N E61L | -0.20 -0.15 -0.38 -0.42 -0.45 -0.16 | -0.29 | 0 of 18
S25L V29W W56Q T59Q | -0.44 -0.72 -0.35 -0.46 0.11 -0.15 | -0.33 | 0 of 18
S25L V29F S33Q W56N E61M | -0.21 -0.29 -0.34 -0.43 -0.33 -0.21 | -0.30 | 1 of 18 (3.16)
S25L S28G V29H W56N | -0.03 0.45 -0.19 -0.03 -0.05 0.02 | 0.03 | 1 of 18 (2.04)
S25L S26Y W56E T59Q | -0.27 -0.39 -0.35 -0.45 -0.34 -0.20 | -0.33 | 1 of 18 (3.28)
S26E L30P W56N | 1.17 1.45 0.86 0.91 1.31 1.49 | 1.20 | 0 of 18
S25V N35M S38A W56N | -0.18 -0.23 -0.38 -0.38 -0.28 -0.20 | -0.27 | 2 of 18 (3.16)
S25L S26Q V29W S38N W56N | -0.51 -0.50 -0.72 -0.58 -0.48 -0.28 | -0.51 | 1 of 18 (2.53)
S25L S26E V29H W56N T59Q E61L | 0.03 -0.08 -0.13 -0.28 -0.26 0.09 | -0.11 | 2 of 18 (2.41)
S25L K36P W56D | 0.08 -0.25 -0.33 -0.34 0.11 -0.17 | -0.15 | 4 of 18 (3.42)
S25V S26M V29E W56N | 0.04 0.04 -0.08 0.14 0.10 0.21 | 0.08 | 1 of 18 (3.06)
S25L Q27M V29Q W56N E61L | 0.28 0.24 0.06 0.20 0.16 0.42 | 0.23 | 0 of 18
S25M V29E W56N T59Q E61M | -0.11 -0.13 -0.15 -0.37 -0.40 -0.09 | -0.21 | 3 of 18 (2.04)
S25L W56G Q96N | -0.09 -0.17 -0.32 -0.10 0.15 -0.02 | -0.09 | 0 of 18
S25L V29D S38N W56D | -0.10 -0.14 -0.14 -0.25 -0.27 0.01 | -0.15 | 1 of 18 (1.93)
S26P V29Q W56N | -0.01 0.19 -0.13 -0.43 0.00 0.09 | -0.05 | 0 of 18
L30D W56N S62Q | 0.00 -0.10 -0.36 -0.54 -0.34 -0.08 | -0.24 | 0 of 18
S25F S26E V29D W56E | 0.25 0.18 -0.22 0.02 -0.08 0.07 | 0.04 | 1 of 18 (2.72)
S25L S26E V29Q W56N T59Q E61L | -0.09 -0.29 -0.23 -0.30 -0.23 -0.15 | -0.21 | 1 of 18 (3.69)
S25V S26Q W56E E61S | 0.25 0.08 -0.04 -0.09 0.30 0.25 | 0.13 | 1 of 18 (2.38)
S25V S28L V29E W56N | 0.24 0.04 0.01 0.00 0.08 0.08 | 0.08 | 2 of 18 (3.36)
S25V W56E A57G | 0.72 0.67 0.26 0.59 0.72 0.83 | 0.63 | 0 of 18
S25L K36S S38N W56N | 0.08 -0.21 -0.13 -0.26 -0.16 0.12 | -0.09 | 1 of 18 (3.11)
S25L V29D S38A W56N | -0.11 -0.27 -0.38 -0.52 -0.44 -0.43 | -0.36 | 0 of 18
S25L V29H W56D | 0.04 -0.11 -0.30 -0.34 -0.23 -0.02 | -0.16 | 0 of 18
S25L V29E L30Q W56N | -0.17 -0.47 -0.68 -0.52 -0.32 -0.21 | -0.40 | 4 of 18 (2.82)
S25L Q27M V29W W56E | 0.34 0.13 0.00 -0.16 -0.03 0.22 | 0.09 | 2 of 18 (2.47)
S25L W56N T59Y E61L | 1.12 0.94 0.60 0.01 0.54 0.57 | 0.63 | 1 of 18 (1.46)
S25L S26M V29N W56N E61M | -0.06 0.03 -0.26 -0.36 -0.34 0.05 | -0.16 | 0 of 18
S25L V29Y E32G W56N | -0.16 -0.25 -0.20 -0.26 -0.27 -0.05 | -0.20 | 1 of 18 (2.75)
S25L V29W L30P W56N T59Q | 0.17 0.18 -0.01 -0.02 0.00 0.21 | 0.09 | 2 of 18 (3.68)
K24Y S25L W56N E61L | 0.19 -0.29 -0.40 -0.48 -0.34 -0.33 | -0.28 | 1 of 18 (2.96)
S25L V29M W56N T59Y | 0.44 0.04 0.15 0.53 0.21 0.31 | 0.28 | 1 of 18 (2.89)
S25L S26Q V29Y W56N | -0.02 0.19 -0.04 -0.01 -0.17 -0.05 | -0.02 | 2 of 18 (2.43)
S25L V29T N35M W56N | 0.14 0.12 0.10 -0.07 0.12 0.25 | 0.11 | 4 of 18 (3.34)
S25V V29E K36W W56N | -0.22 -0.14 -0.14 -0.60 -0.37 0.13 | -0.22 | 0 of 18
S25V S26Q W56N T59Y | 0.23 0.07 0.06 -0.17 0.21 0.29 | 0.12 | 1 of 18 (2.90)
S25L S26R W56N | -0.26 -0.33 -0.49 -0.67 -0.49 -0.38 | -0.44 | 1 of 18 (2.93)
K24F S25L S33D W56N | 0.17 0.02 -0.21 -0.16 -0.20 0.07 | -0.05 | 0 of 18
S25L S33Q S38N W56Q | -0.46 -0.65 -0.56 -0.70 -0.68 -0.54 | -0.60 | 1 of 18 (2.94)

A selection of 8 entries from above:

changes | log10 Kd (nM) by replicate | mean log10 Kd (nM) | control signals
S25L V29M W56N T59Y | 0.44 0.04 0.15 0.53 0.21 0.31 | 0.28 | 1 of 18 (2.89)
S25L S33Q S38N W56Q | -0.46 -0.65 -0.56 -0.70 -0.68 -0.54 | -0.60 | 1 of 18 (2.94)
S25L L30M W56E | 0.39 0.45 0.38 0.18 0.43 0.77 | 0.44 | 1 of 18 (3.04)
S25M V29E W56N T59Q E61M | -0.11 -0.13 -0.15 -0.37 -0.40 -0.09 | -0.21 | 3 of 18 (2.04)
S25V S26Q W56N T59Y | 0.23 0.07 0.06 -0.17 0.21 0.29 | 0.12 | 1 of 18 (2.90)
K24Y S25L W56N T59Q | 0.00 -0.06 -0.06 -0.32 -0.16 0.08 | -0.09 | 1 of 18 (2.50)
S25L S33A W56N E61M | 0.17 0.24 0.15 0.20 0.08 0.28 | 0.19 | 1 of 18 (2.95)
S25L V29W W56H T59Q Q96D | 0.17 0.00 0.25 0.04 0.01 0.22 | 0.12 | 2 of 18 (3.36)

Background: pairings of all light chain designs with three empty control strains gave a value in 4% of cases (median 2.64, 5th percentile 1.59). Values in that range, when seen in few replicates, are hard to tell from nonspecific mating. Also given: how often the same scFv was detected with the empty control strains, with their mean in brackets.
Of ten entries with the parent sequence, four were seen in most replicates (averages 0.34 to 2.37), three in one and three in none, so single entries are noisy.
Values of this round are not directly comparable with the first-round values of the same sequences.

Values reported by Li et al. 2023, doi:10.1038/s41467-023-39022-2 (FLAb copy).